AlphaSeq binding of Ab-14 heavy chain variants to a spike HR2 peptide

Antigen: PDVDLGDISGINAS, a 14-residue peptide of the SARS-CoV-2 spike HR2 region.

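The parent was found by panning a naive human phage display library on the peptide. These sequences belong to a second round, designed from the earlier measurements on random variants of the parent. Group labels follow the data file (Ctrl: baseline library sampled from a position-specific scoring matrix, with some repeated check sequences; Rand: our label for a block that the file lists under HC and that is probably the random mutants of the ten best first-round binders; GP: Gaussian process model; GPLM: also part of the Gaussian process libraries; HC: hill climbing; Gen: genetic algorithm; Gibbs: Gibbs sampling; a sequence that several methods proposed may carry one label only). The scFvs were displayed on barcoded MATa yeast, the peptide on MATalpha yeast. Mating (16 h, 30 °C) was followed by selection of diploids and sequencing of their barcodes. Read counts were normalised to the haploid input and turned into Kd by a linear fit to BCL2-family pairs of known affinity, for each replicate. The assay was run in six technical replicates.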

Parent: Ab-14, a human scFv built as VH, a 15-residue (Gly4Ser)3 linker, VL. Only the CDRs of the heavy chain vary.
VH: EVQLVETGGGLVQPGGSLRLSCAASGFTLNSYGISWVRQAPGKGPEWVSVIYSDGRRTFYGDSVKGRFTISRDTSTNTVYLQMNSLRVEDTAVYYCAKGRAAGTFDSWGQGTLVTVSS
VL: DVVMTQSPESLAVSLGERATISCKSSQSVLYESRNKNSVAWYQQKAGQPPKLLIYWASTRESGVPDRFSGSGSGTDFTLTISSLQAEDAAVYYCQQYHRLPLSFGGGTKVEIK

Positions count from residue 1 of the parent VH; T58C puts C in place of T.
This list holds designs with at most six substitutions.
Kd is apparent (estimated from mating counts) and averaged on the log scale over replicates with a signal. Smaller is tighter.
A pair that was not seen in any replicate is written "no signal"; this usually means weak binding, but a binder can also be missed.

Variant T58C F59I [Ctrl] showed no signal (0 of 6 replicates; controls 0 of 18). Variant T28S G61A R100K A101E S107T [GPLM_Gibbs] gave 60 pM (3 of 6 replicates; controls 0 of 18). Variant S63K A102R [Ctrl] showed 5.3 nM (5 of 6 replicates; controls 0 of 18). Variant T28K S31E R100E [Ctrl] gave 1.1 nM (6 of 6 replicates; controls 0 of 18). For T28S S31W G61S A101T [GP_Gibbs], the assay gave 54 nM (6 of 6 replicates; controls 0 of 18). Variant T28D G61A R100W [GPLM_Gen] gave 3.9 nM (6 of 6 replicates; controls 0 of 18). Variant S53A R100Y D106F S107L [Ctrl] gave 730 pM (4 of 6 replicates; controls 0 of 18).

For S31N F59A G61Q R100K D106P [Ctrl], the assay gave no signal (0 of 6 replicates; controls 0 of 18). Variant T58A F59G G103W T104P [Ctrl] showed no signal (0 of 6 replicates; controls 0 of 18). Variant G26M T28N A101N [GP_Gibbs] showed 1.7 µM (1 of 6 replicates; controls 0 of 18). Variant A101C [Ctrl] showed 370 nM (4 of 6 replicates; controls 0 of 18). Variant S53A R100W S107T [GP_Gen] showed 1.5 nM (6 of 6 replicates; controls 1 of 18). Variant T28P S31E A101H [GP_Gen] gave 11 nM (6 of 6 replicates; controls 0 of 18). Variant T28D G61C A102G [GP_HC] gave no signal (0 of 6 replicates; controls 0 of 18).

Variant T28D S107M [GP_HC] gave 7.6 nM (6 of 6 replicates; controls 0 of 18). Variant S31E G61M S63D R100E D106K [GP_HC] showed 17 nM (5 of 6 replicates; controls 0 of 18). Variant S31D R100G [Ctrl] showed 13 nM (6 of 6 replicates; controls 1 of 18). Variant S31E F59M A101V [GP_HC] gave 80 nM (1 of 6 replicates; controls 0 of 18). Variant T28S S31N A101N S107T [GP_Gibbs] gave 2.5 nM (6 of 6 replicates; controls 0 of 18). With G103V [Ctrl] the result was no signal (0 of 6 replicates; controls 0 of 18). Variant S53R A101E D106F [Ctrl] showed 7.5 nM (6 of 6 replicates; controls 0 of 18).

Variant S31D A101I D106K S107G [Ctrl] gave no signal (0 of 6 replicates; controls 0 of 18). For I51V S53A F105N D106S [Rand], the assay gave no signal (0 of 6 replicates; controls 0 of 18). For G26K S53A R100K A101T [GP_Gibbs], the assay gave 6.9 nM (6 of 6 replicates; controls 0 of 18). Variant T28D R56K A101Q S107V [GP_Gibbs] showed 2.1 nM (6 of 6 replicates; controls 0 of 18). For G26D [Ctrl], the assay gave no signal (0 of 6 replicates; controls 2 of 18). For T28S S31N R100Q S107N [GPLM_Gen], the assay gave 26 nM (6 of 6 replicates; controls 1 of 18). With T28D S63M A101T S107T [GP_Gibbs] the result was 1.4 nM (6 of 6 replicates; controls 1 of 18).

With F27L G61Y G103F S107L [Ctrl] the result was no signal (0 of 6 replicates; controls 0 of 18). Variant T28S L29M F59T G61S D106W S107E [Ctrl] showed no signal (0 of 6 replicates; controls 0 of 18). Variant T28D G61A A101S [GPLM_Gen] showed 8.2 nM (2 of 6 replicates; controls 1 of 18). With A101Q G103C T104F D106P [Ctrl] the result was no signal (0 of 6 replicates; controls 0 of 18). With T28S G61E R100Q A101L [GP_HC] the result was 9.9 nM (6 of 6 replicates; controls 1 of 18). With F27V T28G T104D [Ctrl] the result was no signal (0 of 6 replicates; controls 0 of 18). Variant G61S R100Q A101I [GPLM_Gen] gave 2.8 nM (6 of 6 replicates; controls 0 of 18).

For G26S S31E G103V S107Q [GP_HC], the assay gave 14 nM (6 of 6 replicates; controls 1 of 18). With S53A S107T [Ctrl+GPLM_Gen] the result was 1.9 nM (12 of 12 replicates; controls 0 of 36). Variant R56V S63K [Ctrl] showed 44 nM (4 of 6 replicates; controls 0 of 18). With N30P S35D G61D R100Q A101L [Rand] the result was no signal (0 of 6 replicates; controls 0 of 18). With S31E G61T A101S D106S [GPLM_HC] the result was 94 nM (6 of 6 replicates; controls 0 of 18). Variant T28Q G61V R100E [GP_Gibbs] gave 330 nM (5 of 6 replicates; controls 0 of 18). Variant G26Q S31E G55F G61A [Ctrl] showed no signal (0 of 6 replicates; controls 0 of 18).

With R56V A101T [GPLM_Gen] the result was 13 nM (6 of 6 replicates; controls 1 of 18). Variant T28N S35H G61R S63Q [Ctrl] showed no signal (0 of 6 replicates; controls 0 of 18). Variant T28D S31E A101Q S107T [GP_Gibbs] showed 950 pM (6 of 6 replicates; controls 2 of 18). With A101D A102D D106E [Ctrl] the result was no signal (0 of 6 replicates; controls 1 of 18). With T28E S107Y [Ctrl] the result was 86 nM (6 of 6 replicates; controls 0 of 18). Variant T28E F59A G61Q [GPLM_Gibbs] gave 970 pM (6 of 6 replicates; controls 1 of 18). With G26Y S31E A101T [GPLM_Gen] the result was 8.5 nM (2 of 6 replicates; controls 0 of 18).

Variant T28D R100Q A101L [GP_Gibbs] gave 1.0 nM (6 of 6 replicates; controls 1 of 18).

The last 5 entries again:

changes	group	apparent Kd	replicates with signal	control signals
A101D A102D D106E	Ctrl	no signal	0/6	1/18
T28E S107Y	Ctrl	86 nM	6/6	0/18
T28E F59A G61Q	GPLM_Gibbs	970 pM	6/6	1/18
G26Y S31E A101T	GPLM_Gen	8.5 nM	2/6	0/18
T28D R100Q A101L	GP_Gibbs	1.0 nM	6/6	1/18

The parent sequence was in this pool as ten entries: three were never detected, three once, and four in most replicates, with averages from 2.2 nM to 240 nM.
The authors averaged sequences with at least three values out of six and counted those with two or fewer as poor binders.
Nonspecific signal, from three strains lacking the peptide, appeared in 1% of pairings of all heavy chain designs, centred on 120 nM (5% of these signals below 7.0 nM); values are not corrected for it. Also given: how often the same scFv was detected with the empty control strains.
A sequence that the file lists under several names has all its replicates pooled.
Values of this round are not directly comparable with the first-round values of the same sequences.

From the AlphaSeq antibody data of Li et al. 2023 (doi:10.1038/s41467-023-39022-2), copy in the FLAb collection.